Results taken from patent US20190309044A1, “POLYPEPTIDES AND USES THEREOF AS A DRUG FOR TREATMENT OF AUTOIMMUNE DISORDERS” (Compugen Ltd., priority 2017, published 2019).

Tested on: synovial-like T-cell - macrophage co-cultures
Experiment: Synovial-like T-cell - macrophage co-cultures from RA patients not responding to TNF blockers, TNFa secretion
Assay type: cell-based, human
Conditions: Example 20; 30 microg/ml
Text: The therapeutic potential of C1ORF32-ECD-FC (SEQ ID #43) for treating RA was studied in co-cultures of activated T cells and macrophages that were modified to mimic the deleterious interaction of these cells in RA synovium. This interaction drives the secretion of pro-inflammatory cytokines that play a major role in the pathology of RA, leading to progressive joint inflammation and to joint destruction. Thus, these co-cultures provide a translational tool to evaluate the effect of potential drugs for treatment of RA (Wenink et al., Ann Rheum Dis 2012; 71:1 80-83).
Purified T cells and myeloid cells from blood of RA patients that fail to respond to treatment with TNF blockers were activated for 6 days with TNFa, IL-6 and IL-15 and co-cultures with Monocytes derived macrophages that were generated by activation of CD14+ monocytes with M-CSF for 6 days.
The effect of C1ORF32-ECD-FC, Abatacept (CTLA4-Ig), control Ig, vehicle or no treatment were tested via evaluation of TNFa secretion. The amounts were administered as follows: FIG. 33: 30microg/ml of each protein; FIG. 34: 3, 10, 30microg/ml of each protein as shown.
A similar method was followed as for Example 20. […] Details of the treatments these patients were receiving and their response to these treatments are depicted in Table 6, showing loss of effect in response to one or more TNF blockers.

Substance: abatacept: fusion protein of the ECD of CTLA-4 fused to the Fc fragment of hIgG1 [reference compound]
- TNFa secretion in one of the donors: no effect
